Test results reported in ChEMBL document CHEMBL1147156, “Structure-based design and synthesis of N(omega)-nitro-L-arginine-containing peptidomimetics as selective inhibitors of neuronal nitric oxide synthase. Displacement of the heme structural water” (J Med Chem, 2007).

Biological target: T1, Nitric oxide synthase 3 (Bos taurus, UniProt P29473)
T1 sequence (P29473 whole entry): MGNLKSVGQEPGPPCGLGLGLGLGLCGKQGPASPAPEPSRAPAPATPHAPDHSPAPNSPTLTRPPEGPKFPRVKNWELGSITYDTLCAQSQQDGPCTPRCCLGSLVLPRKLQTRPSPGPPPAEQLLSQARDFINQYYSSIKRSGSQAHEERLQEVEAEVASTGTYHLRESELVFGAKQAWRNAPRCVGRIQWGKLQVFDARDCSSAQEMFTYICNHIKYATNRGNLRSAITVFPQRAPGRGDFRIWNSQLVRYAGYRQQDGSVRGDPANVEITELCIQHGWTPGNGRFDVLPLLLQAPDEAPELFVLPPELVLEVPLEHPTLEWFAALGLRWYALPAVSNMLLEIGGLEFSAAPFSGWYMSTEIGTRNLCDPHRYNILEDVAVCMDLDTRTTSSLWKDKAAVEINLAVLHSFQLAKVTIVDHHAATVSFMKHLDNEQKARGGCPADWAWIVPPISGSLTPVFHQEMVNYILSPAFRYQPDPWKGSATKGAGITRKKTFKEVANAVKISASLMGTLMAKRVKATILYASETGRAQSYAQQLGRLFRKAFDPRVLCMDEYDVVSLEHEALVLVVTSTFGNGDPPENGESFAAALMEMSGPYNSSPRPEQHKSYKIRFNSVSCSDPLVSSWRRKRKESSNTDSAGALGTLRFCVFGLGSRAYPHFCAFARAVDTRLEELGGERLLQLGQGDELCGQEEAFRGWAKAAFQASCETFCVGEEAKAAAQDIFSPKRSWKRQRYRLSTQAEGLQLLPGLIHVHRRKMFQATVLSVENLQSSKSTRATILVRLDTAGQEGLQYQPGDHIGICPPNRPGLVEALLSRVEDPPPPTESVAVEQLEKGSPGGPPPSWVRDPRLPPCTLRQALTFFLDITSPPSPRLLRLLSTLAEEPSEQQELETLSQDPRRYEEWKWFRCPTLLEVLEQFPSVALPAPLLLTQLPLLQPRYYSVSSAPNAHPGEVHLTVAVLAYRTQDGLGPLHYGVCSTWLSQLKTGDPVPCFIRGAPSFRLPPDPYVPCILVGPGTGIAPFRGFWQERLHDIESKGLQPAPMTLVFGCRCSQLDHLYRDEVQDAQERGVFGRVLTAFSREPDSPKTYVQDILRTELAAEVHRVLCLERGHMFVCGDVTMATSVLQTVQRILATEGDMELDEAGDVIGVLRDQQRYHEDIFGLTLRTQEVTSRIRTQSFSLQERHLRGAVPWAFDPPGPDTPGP
Assay: Inhibition of bovine recombinant endothelial NOS by hemoglobin capture assay

Compound `N=C(NCCC[C@H](N)C(=O)O)N[N+](=O)[O-]` [NITROARGININE] has a Ki of 0.72 µM.
